Assay results as given in patent US10238689B2, “Methods for combating bacterial infections by killing persister cells with mitomycin C and/or cisplatin” (THE PENN STATE RESEARCH FOUNDATION, priority 2015, dated 2019).

Tested on: E. coli BW25113
Experiment: Validation of persisters (three rounds of the persister assay)
Format: cell-based, Escherichia coli
Details: LBCipro5 or LBAmp100 agar
Experimental: Validation of persisters. To validate that the persister cells are tolerant to antibiotics, not spontaneous resistant mutants, three rounds of the persister assay were performed. Overnight (16 h) cultures of E. coli BW25113 were diluted 1:1000 with fresh buffered LB and grown to a turbidity of ˜0.8 at 600 nm. A 1 mL culture was used for the drop assay, and a 5 mL culture was treated with ciprofloxacin (5 μg/mL) and ampicillin (100 μg/mL) for 3 h (125 mL flask, 250 rpm). After the first round of antibiotic treatment, a 1 mL sample was centrifuged at 10,000 rpm for 3 min, and the cells were resuspended in 1 mL of normal saline. A 100 μL of cell suspension was used for the drop assay on both LB and LB with 5 μg/mL of ciprofloxacin (LBCipro5) agar (for ciprofloxacin treated samples) or LB with 100 μg/mL of ampicillin (LBAmp100) agar (for ampicillin treated samples). For the second and third rounds, cell suspensions were diluted 1:100 with fresh buffered LB and regrown to a turbidity of ˜0.8 at 600 nm and used for antibiotic treatment followed by the drop assay.

O=C(O)c1cn(C2CC2)c2cc(N3CCNCC3)c(F)cc2c1=O [ciprofloxacin]
resistant colonies on antibiotic agar: no colonies were detected
